In article PMC10811212 (Frontiers in Oncology, 2024):

Tested on: MyoF system (lung fibroblasts)
Settings: 10 μM (top concentration)

Substance: AZD4547 [reference compound]
- cytotoxicity in the MyoF system: cytotoxic
